Screening results: PubChem BioAssay, National Center for Advancing Translational Sciences (NCATS)
Rango release inh: inhibitors of RanGTP-induced Rango-importin beta complex dissociation | Potency, µM (highest dose often 46.1 µM), inactives show top-dose activity change, negative = inhibition | Biochemical FRET Rango-importin beta, RanGTP-induced dissociation | hit rate 0.071% among 340,000 | AID 540253; calls by dose curve; further: % of control where 0% means no effect; nearly all actives have a fitted effect of over 45% in size
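Rango (0.1 uM)–importin beta (0.25 uM) complex; RanGTP-RCC1 trigger; 45 min RT; CFP/YFP FRET read.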
PTAP TSG101 blk: blocks PTAP/TSG101 interaction to inhibit HIV-1 budding; Q99816; Fluorescence polarization, FITC-PTAP peptide / Tsg101 binding; Potency, µM (titrated, usually from 115 µM), without a hit: at the highest dose activity change, negative = inhibition, usual class: inhibitors; 340,000 tested, under 10 active; AID 493005; active means well fitted inhibition curve with a large enough effect in the main read-out, with a control signal flat, not every such curve was filed as active; inconclusive means small, poorly fitted or top-dose-only effect, or effect the other way, or a change in a side signal; inactive means no such curve, though single readings can be large or run the other way; further: % of control where 0% means no effect
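Fluorescence anisotropy tracks displacement of a FITC-tagged PTAP peptide (50 nM) from the Tsg101 binding domain (10 uM), following a 20 min room-temperature incubation at pH 7.5.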
TDP1 inh: TDP1 (human) enzyme inhibition | hit rate 0.28% among 350,000 | recombinant TDP1, AlphaScreen DNA substrate cleavage | Potency, µM (series often up to 130 µM), for inactives: top-dose activity change, negative = inhibition, most hits filed as inhibitors | Q9NUW8; further: on the % scale 0 is the no-effect control and ±100 the full control effect; nearly all actives have a fitted effect of over 40% in size
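Here, a 5' biotin and 3' phosphotyrosine-FITC DNA oligonucleotide reports Tdp1 activity: intact substrate bridges AlphaScreen beads, while cleavage leaves a 3' phosphate and drops signal. All incubations at room temperature.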
ClpP mod: qHTS Assay for Activators of ClpP; ATP-dependent Clp protease proteolytic subunit (Bacillus subtilis (strain 168)), P80244; purified B. subtilis ClpP, FRET peptide cleavage, 20 min; Potency, µM (doses to about 57.5 µM), without a hit: at the highest dose activity change, negative = active; hit rate 1.9% among 340,000; active means well fitted falling curve with a large enough effect; inconclusive means small, poorly fitted or top-dose-only effect; inactive means no such curve, though single readings can be large or run the other way; further: the source files actives as falling curves though it sought activators and does not explain the sign; nearly all actives have a fitted effect of over 65% in size
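ClpP 10 microg/mL final, pH 8 Tris/KCl buffer with BSA, glycerol, Tween-20; compound pinned in; FRET-FV substrate; RT 20 min; Ex320/Em430; ΔFRET vs ADEP 5.8 microM, DMSO, no enzyme.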
ALOX12 inh: ALOX12 (human) lipoxygenase inhibition; purified 12hLO, xylenol orange hydroperoxide absorbance; Potency, µM (highest dose often 108 µM), for inactives: top-dose activity change, negative = inhibition, usual class: inhibitors; hit rate 1.1% among 580,000; AID 1671190; further: on the % scale 0 is the no-effect control and ±100 the full control effect
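Purified human 12hLO (150 nM final) in 25 mM Hepes, 0.01% Triton X-100, pH 7.0 was preincubated 15 min at room temperature with compound. Then 40 uM arachidonic acid was added, 30 min. Hydroperoxide was read by Fe-XO absorbance ratio 573/405 nm.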
Rango complex inh: Rango-importin beta binding inhibition | Potency, µM (titrated, usually from 92.2 µM), inactives show at the top dose inhibition of complex formation | Q14974 | AID 540263 | Rango CFP/YFP FRET sensor + importin beta, 45 min | hit rate 0.031% among 340,000; calls by dose curve;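 further: 0% = DMSO wells and 100% = buffer wells lacking importin beta; nearly all actives have a fitted effect of over 15% in size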
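FRET biosensor Rango (snurportin 1 IBB between N-terminal EYFP and C-terminal Cerulean), 50 nM in PBS/1 mM DTT/0.02% Tween-20/0.1% BSA, preincubated 5 min RT with compound; 0.125 microM importin beta added, 45 min RT, CFP/YFP FRET ratio read.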
Active calls of the source: *; ? = inconclusive; / = not tested or not shown; ! = not confirmed by another sample; [ ] = another dose, or the depositor's remark. Sampled rows, rich in hits. Any-hit rate of the full collection: about 2.4%. Unless noted, the call rests on the fitted dose curve; in most records, active means well fitted curve in the direction sought with a large enough effect; inconclusive means small, poorly fitted or top-dose-only effect, or another doubt; inactive means no such curve, though single readings can be large; an effect the other way counts as inactive or inconclusive. Potency means the concentration at half of the fitted maximal effect.

Amino acid sequences for entries named in this document (tags omitted).
ATP-dependent Clp protease proteolytic subunit (Bacillus subtilis (strain 168)), P80244, UniProt P80244, whole entry, looked up: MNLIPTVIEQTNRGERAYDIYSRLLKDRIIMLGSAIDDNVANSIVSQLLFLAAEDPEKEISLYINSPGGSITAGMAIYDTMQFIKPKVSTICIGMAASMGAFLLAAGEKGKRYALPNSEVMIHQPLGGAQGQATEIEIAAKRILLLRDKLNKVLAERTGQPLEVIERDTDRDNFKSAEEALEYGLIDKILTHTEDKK

Second line of a record – Rango release inh, PTAP TSG101 blk, TDP1 inh, ClpP mod, ALOX12 inh, Rango complex inh
(1) COc1ccc(-n2nc3cc(N)c(Br)cc3n2)cc1
  -1%, 1%, /, 1%, -8%, -4%
(2) CCc1ccc(-n2nc3cc(C)c(N)cc3n2)cc1
  ?, -8%, 2%, 4%, 20µM*, ?
(3) Nc1cc2nn(-c3ccccc3)nc2cc1Cl
  -27%, -4%, 8%, -17%, 5.6µM*, ?
(4) Cc1ccc(-n2nc3cc(C)c(N)cc3n2)cc1
  18µM*, 0%, -1%, 56%, 45µM*, ?
(5) COc1ccc(-n2nc3cc(C)c(N)c(Br)c3n2)cc1
  -1%, -13%, -2%, -24%, 28µM*, -2%
(6) Nc1ccc2nn(-c3ccccc3)nc2c1
  ?, 3%, 2%, /, ?, ?
(7) CCCCc1nc(NCCN(C)C)c(C#N)c2c1CCCC2
  /, /, /, /, -15%, /
(8) Cc1c(P(=S)(c2ccccc2)c2ccccc2)[n+]2ccccc2n1CC(=O)c1ccccc1
  /, /, 1%, /, /, /
(9) COc1cccc(CN2C(=O)COCc3cc(-c4cccc(CO)c4)ccc32)c1
  /, /, /, /, 9%, /
(10) COc1ccc(NC(=O)c2cnc3c(c2)N(C(=O)Cc2ccccc2OC)CCC3)cn1
  /, /, /, /, 0%[176 µM], /
(11) COc1cc2sc3cc(NCCCN4CCOCC4)ccc3c(=O)c2cc1OC
  ?, /, 1%, 4%, -1%, ?
(12) O=c1c2ccccc2sc2ccc(NCCCN3CCOCC3)cc12
  ?, 1%, /, -4%, 14µM*, ?
(13) COC(=O)N(C)C(C)c1cccs1 (stereo not drawn)
  /, /, /, /, 40%[176 µM], /
(14) CN1CCS/C1=C/C=C1\SC(=S)N(CC(=O)O)C1=O
  ?, ?, 0%, /, -16%, 58µM*
(15) CCCCN1C(=O)/C(=C/C=C2\SCCN2C)SC1=S
  -6%, ?, 14%, /, ?, 52µM*
(16) CN1CCS/C1=C/C=C1/SC(=S)N(Cc2ccccc2)C1=O
  -8%, ?, 0%, -1%, 4%, ?
(17) Cc1ccc(C2Cn3nnc(C(=O)N4CCC(C(=O)NCCC5=CCCCC5)CC4)c3CO2)cc1 (stereo not drawn)
  /, /, /, /, 10%, /
(18) CCNC(=O)[C@@H]1CCCN1C(=O)[C@H](CCCN=C(N)N)NC(=O)[C@H](CC(C)C)NC(=O)CNC(=O)[C@H](Cc1ccc(O)cc1)NC(=O)[C@H](CO)NC(=O)[C@H](Cc1c[nH]c2ccccc12)NC(=O)[C@H](Cc1cnc[nH]1)NC(=O)[C@@H]1CCC(=O)N1
  /, /, /, /, 1%[22.9 µM], /
(19) COCCCNC(=O)c1cc2c(-c3cccc(OC)c3)nn(C)c2s1
  15%, -6%, 5%, 4%, -1%, 7%
(20) COc1cccc(-c2nn(C)c3sc(C(=O)NCc4ccc(C)cc4)cc23)c1
  1%, -4%, 2%, 20µM*!, 6%, 0%
(21) Cc1ccc(NC(=O)c2cc3c(-c4ccccc4)nn(-c4ccccc4)c3s2)cc1
  /, /, 6%, 18µM*, -17%, /
(22) COc1cccc(-c2nn(C)c3sc(C(=O)NCc4ccccn4)cc23)c1
  0%, -1%, 3%, 28µM*, 1%, -1%
(23) COc1ccccc1-c1cc(C(=O)N2CCN(c3ncccn3)CC2)nn2cccc12
  /, /, /, /, -2%[6.33 µM], /
(24) CCOC(=O)CNCCC(=O)c1ccc(Br)cc1
  ?, -1%, 5%, -1%, 28µM*, ?
(25) Cc1cccc(NCCC(=O)c2ccc(Br)cc2)c1
  0%, -6%, 0%, 0%, -11%, -2%
(26) COc1cccc(C2CC3(CC(C)(C)NC(=S)N3)Oc3cc(O)ccc32)c1 (stereo not drawn)
  -5%, 1%, 3%, 6%, ?, 1%
(27) CC1(C)CC2(CC(c3ccccc3F)c3cc(Cl)c(O)cc3O2)NC(=S)N1 (stereo not drawn)
  7%, -3%, 8%, /, 32µM*, 5%
(28) Cc1cccc(C2CC3(CC(C)(C)NC(=S)N3)Oc3cc(O)ccc32)c1 (stereo not drawn)
  22%, -9%, 8%, /, 40µM*, 5%
(29) CCCCNc1nc(CC)c2c(c1C#N)CCCC2
  -2%, -5%, 6%, 28µM*, 316%, -1%
(30) CCc1nc(NCCCOC)c(C#N)c2c1CCCC2
  /, /, /, /, 60%, /

Pulled by compound from above, six records:
Second line of a record – Rango release inh, PTAP TSG101 blk, TDP1 inh, ClpP mod, ALOX12 inh, Rango complex inh
(24) CCOC(=O)CNCCC(=O)c1ccc(Br)cc1
  ?, -1%, 5%, -1%, 28µM*, ?
(11) COc1cc2sc3cc(NCCCN4CCOCC4)ccc3c(=O)c2cc1OC
  ?, /, 1%, 4%, -1%, ?
(14) CN1CCS/C1=C/C=C1\SC(=S)N(CC(=O)O)C1=O
  ?, ?, 0%, /, -16%, 58µM*
(10) COc1ccc(NC(=O)c2cnc3c(c2)N(C(=O)Cc2ccccc2OC)CCC3)cn1
  /, /, /, /, 0%[176 µM], /
(12) O=c1c2ccccc2sc2ccc(NCCCN3CCOCC3)cc12
  ?, 1%, /, -4%, 14µM*, ?
(3) Nc1cc2nn(-c3ccccc3)nc2cc1Cl
  -27%, -4%, 8%, -17%, 5.6µM*, ?

Additional structures.
Second line of a record – Rango release inh, PTAP TSG101 blk, TDP1 inh, ClpP mod, ALOX12 inh, Rango complex inh
(31) CC(C)Oc1ccc2c(NC(=O)c3ccon3)nn(Cc3ccccc3)c2c1
  /, /, /, /, 35%, /
(32) O=C(c1n[nH]c2ccccc12)N1CCC(c2nc(CCOCC3CCOCC3)no2)C1 (stereo not drawn)
  /, /, /, /, 6%, /
(33) O=C(c1cc(-c2ccco2)on1)N1CCc2ccccc2C1
  1%, -2%, 2%, -6%, 18µM*, -5%
(34) O=C(c1cc(-c2ccccc2O)on1)N1CCc2ccccc2C1
  -4%, 2%, 4%, -1%, ?, 1%
(35) c1ccc(C(c2ccccc2)N2CCN(C(c3ccccn3)c3nnnn3C3CCCC3)CC2)cc1 (stereo not drawn)
  1%, -6%, 5%, 22µM*, /, 0%
(36) c1cncc(C(c2nnnn2C2CCCC2)N2CCCC2)c1 (stereo not drawn)
  4%, -2%, 8%, -1%, 4%, 0%
(37) NC(=O)C1CCN(C(c2ccccc2)c2nnnn2C2CCCC2)CC1 (stereo not drawn)
  35%, -7%, 1%, -3%, 7%, 1%
(38) c1ccc(C(c2nnnn2C2CCCC2)N2CCCCCC2)nc1 (stereo not drawn)
  35%, -8%, 4%, 22µM*, 2%, -2%
(39) NC(=O)c1ccc(O)cc1
  /, /, /, /, 14%, /
(40) O=C(O)C1CCCCC1C(=O)Nc1ccccc1Nc1ccccc1 (stereo not drawn)
  27%, -7%, 6%, 25µM*, 38%, 8%
(41) O=C(Nc1ccccc1)c1ccccc1NC(=O)[C@H]1CCCC[C@H]1C(=O)O
  -13%, -8%, /, 0%, -3%, 0%
(42) Cc1nc2c(c(-c3ccc(O)cc3)n1)CN(Cc1cccnc1)CC2
  /, /, /, /, 20%[176 µM], /
(43) CCOC(=O)CNC(=O)NCc1cccn1Cc1ccccc1C
  /, /, /, /, -6%, /
(44) Cc1cccn2cc(-c3ccc(F)cc3)nc12
  -5%, -2%, 1%, 18µM*, 0%, -4%
(45) COc1ccc(-c2cn3ccc4ccccc4c3n2)cc1
  -4%, -4%, -3%, 28µM*, 25%, -4%
(46) Cc1cccn2cc(-c3ccccc3)nc12
  6%, -3%, -4%, 10µM*, 40%, 1%
(47) Cc1cccc(-c2ccc(C=O)cc2)c1
  /, /, /, /, 10%[12.5 µM], /
(48) COc1ccc(/C=C2\S/C(=N/S(=O)(=O)c3cccs3)NC2=O)cc1
  -9%, -12%, -3%, /, 40µM*, 0%
